This assay concerns focal cerebral ischemia.

The structures appear in SMILES notation. Where two headings read alike, the source gives them in different places.

Regarding `COc1cccc(-c2cc(=O)c3ccccc3o2)c1N` [PD98059, 2-(2-amino-3-methoxyphenyl)-4-oxo-4H-[1]benzopyran], the “decrease in total damage” value (50 μM i.c.v. pretreatment, P<0.05) is 23%; the “decrease in total damage” value (100 μM i.c.v. pretreatment, P<0.05) is given as 42%; the “decrease in total damage” value (200 μM i.c.v. pretreatment, 22 hours following ischemic insult, P<0.01) was found to be 55%; the “decrease in total damage” value (200 μM i.c.v. pretreatment, three days post-ischemia, P<0.05) worked out at 43%. Also, the “protective when injected i.c.v. as pretreatment versus during ischemia” value (2 hours MCAO) is reported as “only pretreatment with intraventricular administration of PD98059, but not injection during ischemia, is protective”.

These data come from patent US6319955A, “Use of MEK1 inhibitors as protective agents against damage due to ischemia” (priority 2000, dated 2001).
